Values of other authors in paper PMC5964550 (Contrast Media & Molecular Imaging, 2018).

How the values were obtained:
P-gp = conditions: cited from earlier work
[1] = system: breast cancer resistance protein (ABCG2); conditions: cited from earlier work
[2] = system: human organic cation transporter 1 (OCT1, SLC22A1); conditions: in vitro; cited from earlier work

## CCN(CC)CCNC(=O)c1cc(Cl)c(N)cc1OC [metoclopramide]
P-gp
  P-gp inhibitor status: not a P-gp inhibitor
[1]
  substrate of ABCG2: not a substrate
[2]
  substrate of human OCT1: substrate
